Test results as given in PubChem BioAssay AID567 (The Scripps Research Institute Molecular Screening Center, 2006).
The entries are a selection whose mix differs from that of the whole data set. Calls of active or inactive are those of the source.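 How the source made its calls: active means activation above the screen-wide mean activation plus 3 SD (cut at about 19% in these data); inactive means the rest.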

Protein sequences, listed by entry. Tags and fused reporters are not part of them.
UniProt P08908, whole entry: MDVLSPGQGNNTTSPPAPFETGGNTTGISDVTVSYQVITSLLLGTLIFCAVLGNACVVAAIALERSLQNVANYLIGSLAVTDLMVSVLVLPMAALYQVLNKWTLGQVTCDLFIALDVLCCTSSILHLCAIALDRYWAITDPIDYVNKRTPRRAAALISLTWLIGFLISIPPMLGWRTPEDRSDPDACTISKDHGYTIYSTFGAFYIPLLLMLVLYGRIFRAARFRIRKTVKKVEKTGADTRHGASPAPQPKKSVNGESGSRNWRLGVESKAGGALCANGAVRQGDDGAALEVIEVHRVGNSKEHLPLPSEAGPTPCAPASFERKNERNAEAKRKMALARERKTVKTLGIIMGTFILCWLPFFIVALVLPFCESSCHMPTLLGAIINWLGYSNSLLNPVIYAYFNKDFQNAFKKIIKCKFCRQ

Biological target: 5-hydroxytryptamine receptor 1A (Homo sapiens) (UniProt P08908)
Assay: human 5-HT1a receptor agonists, primary screen, cell-based, CHO, Ga15 NFAT-bla reporter (AID 567);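 further: 0% = DMSO wells and 100% = 5-CT at EC100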
Settings: CHO 5-HT1a Ga15 NFAT-bla reporter, FRET ratio; at 10 µM; stronger effect = higher value; 0% basal, 100% maximal reference agonist

| Structure (SMILES) | activation |
| --- | --- |
| CCC(CO)(C(=O)OC1CN2CCC1CC2)c1ccccc1 (configuration not stated) | inactive: -3.88% |
| CCOc1ncccc1C(=O)NCC1(N2CCOCC2)CCCCC1 | inactive: -0.7% |
| Fc1ccccc1NC1CCN(Cc2ccccc2)CC1 | inactive: 0.43% |
| N/C(=N\O)c1c(N)no[n+]1[O-] | inactive: 1.1% |
| N#CC1(Nc2ccccc2)CCN(CCc2ccccc2)CC1 | inactive: -0.96% |
| COc1ccc(NC2CCN(CCc3ccccc3)CC2)c(OC)c1 | inactive: -0.71% |
| O=C(OC1CN2CCC1CC2)C1c2ccccc2Oc2ccccc21 (configuration not stated) | inactive: -1.68% |
